Measurements published in patent publication US7112579B2, “26,27-Homologated-20-EPI-2-alkyl-19-nor-vitamin D compounds” (Wisconsin Alumni Research Foundation, priority 1997, dated 2006).

Test system: human promyelocyte HL-60 cells
Assay: Differentiation of HL-60 promyelocytes into monocytes (NBT reduction)
Assay type: cell-based
Settings: analog average ED50 / ED50 for 1α,25-(OH)2D3
Protocol: The differentiation of HL-60 promyelocytic into monocytes was determined as described by Ostrem et al (J. Biol. Chem. 262, 14164–14171, 1987).
In the next assay, the cellular activity of the synthesized compounds was established by studying their ability to induce differentiation of human promyelocyte HL-60 cells into monocytes.
The differentiation of HL-60 promyelocytic into monocytes was determined as described by Ostrem et al (J. Biol. Chem. 262 14164–14171, 1987).

C=C1/C(=C\C=C2/CCC[C@]3(C)[C@@H]([C@H](C)CCCC(C)(C)O)CC[C@@H]23)C[C@@H](O)C[C@@H]1O [1α,25-(OH)2D3, 1α,25-dihydroxyvitamin D3, reference compound]
HL-60 Differentiation Activity ratio (Table 6): 1
HL-60 Differentiation Activity ratio (Table 8): 1
